Source: patent publication US20240279332A1 (Amgen, published 2024)

B1: 61G5 (antibody, V domains shown)
VH: QVQLVQSGAEVKKPGASVKVSCKASGYTFTSYDINWVRQATGQGLEWMGWMNPNSGNSGSVKKFRDRVTMTRNTSISTAYMELSSLRSEDTAVYYCVRLIGYSSAWKWSFQHWGQGTLVTVSS
VL: DIQMTQSPSSLSASVGDRVTITCQASRDISKYLNWYQQKPGKAPKLQIYDASNLETGVPSRFSGSGSGTDFTFTISSLQPEDIATYYCQHYDNIPITFGQGTRLEIKR
notes: also called TREM1 antibody 61G5
B2: 63F8 (antibody, V domains shown)
VH: QVQLVQSGAEVKKPGASVKVSCKASGYTFTSYDINWVRQATGQGLEWMGRMNPKSGNAGYVQNFRGRVTMTRNTSISTAYMELSSLRSEDTAVYYCARGGRTSIWSFVFDYWGQGTLVTVSS
VL: DIQMTQSPSSLSASVGDRVTITCQASQDISKHLNWYQQKPGKAPKLLIYDTSNLETGVPSRFSGSGSGTDFTFTISSLQPEDIATYNCQQYDKLPLTFGGGTKVEIKR
notes: also called TREM1 antibody 63F8
B3: 64D7 (antibody, V domains shown)
VH: QVQLVQSGAEVKKPGASVKVSCKASGYTFTSYDINWVRQATGQGLEWMGWMNPNRGNTGYVKKFQGRVTMTRNTSISTAYMELSSLRSEDTAVYYCARRRAVYRSSWEWYFDLWGRGTLVTVSS
VL: DTQMTQSPSSLSASEGDRVTITCQASQDIFNDLNWYQEKPGKAPKLLIYHASNLETGVPSRFSGSGSGTDYTFTISSLQPEDIATYYCQQYGNLPLTFGGGTKVEIKR
notes: also called TREM1 antibody 64D7
B4: 44A5 (antibody, V domains shown)
VH: EVQLLESGGGLVQPGGSLRLSCAASGFTFSTYAMNWVRQAPGKGLEWVSTVSGSGRPTYYADSVKGRFTISRDNSKNTLYLQMNSLRAEDTAVYYCAKAYYSNYLFDYWGQGTLVTVSS
VL: EIVMTQSPAILSVSPGERATLSCRASQSVSSNLAWYQQKPGQAPRLLIYGASTRATGVPARFSGGGSGTDFTLTISSLQSEDFAVYYCQHCKTWPPLTFGGGTKVDLKR
notes: also called TREM1 antibody 44A5
B5: 46H7 (antibody, V domains shown)
VH: EVQLLESGGGMVQPGGSLRLSCAVSGFTFSRYAMSWVRQAPGKGLEWVSEMRGSSGSTYYADSVKGRFTISRDNSKNTLYLQMNSLRVEDTAIYYCAKEFSSNSLFDYWGQGTLVTVSS
VL: EIVMTQSPATLSVSPGERATLSCRASQSVNSNLAWYQQKPGRAPRLLIYGASTRATGIPARFSGSGSGTEFTLTISSLQSEDFAVYYCQQFYNWPPWTFGQGTKVEIKR
notes: also called 46H7 (19332)

Key:
[1] = target: T1, human TREM-1 (TrigGering Receptor Expressed on Myeloid cells 1) on cells (human, UniProt Q9NP99 21-234); experiment: FACS on HEK293 co-transfected with human TREM-1 and DAP12; hybridoma supernatant 2.5 ug/mL; geomean fold over irrelevant control antibody
T1 construct: also called human TREM1/DAP12; TREM-1/DAP12
Procedure: (§1) The TREM-1-specific antibodies identified in primary screening were evaluated for cross-reactivity to cynomolgus TREM-1, as well as specificity to TREM-1 and not DAP12. TREM-1 hybridoma supernatants were tested for binding to human or cyno TREM-1 transiently expressed on HEK293 cells by FACS (harvests 1-6) or by […]™ (harvests 8-9). […] The following day, transfected HEK293 cells were transferred into 96-well FACS plates at 50,000 cells/well and incubated with normalized hybridoma supernatants at a final concentration of 2.5 μg/mL for 1 hour at 4° C. Cells were then pelleted by centrifugation, supernatant was removed by flicking, and wells were washed twice with 200 μL/well of FACS buffer. 5 μg/mL ALEXA FLUOR® 647 Goat anti-Human IgG Fc (Jackson ImmunoResearch) secondary detection antibody and 2.5 μg/mL 7-aminoactinomycin-D (Sigma) viability stain were incubated with the cells for 15 minutes at 4° C. Cells were pelleted by centrifugation, supernatant was removed by flicking, and wells were washed once more with 200 μL/well of FACS buffer. TREM-1 hybridoma supernatants showing human TREM-1- or cyno TREM-1-specific binding was detected by FACS on the BD ACCURI™ 06 flow cytometer with Intellicyt autosampler. The data was reported as geomean (GM) fold over irrelevant control antibody binding.

[2] = target: T2, biotinylated human TREM-1-His antigen (human, UniProt Q9NP99 21-205, biotinylated in-house, site not stated); experiment: limiting antigen assay, FACS on LumAvidin beads coated with 7.5 ng/mL biotinylated human TREM-1-His; antibody 5 ug/mL
T2 construct: Soluble TREM-1; also called b-huTREM-1-His; Soluble TREM1
Source text: TREM-1 Antibody Relative Affinity Ranking by Limiting Antigen Assay: TREM1 hybridoma supernatants were affinity-ranked within the panel by their binding kinetics to soluble TREM-1 in a limiting antigen assay using LUMAVIDIN® beads (Luminex) on FACS. Briefly, in-house biotinylated human TREM-1-His antigen (b-huTREM-1-His) was serially diluted in FACS buffer and combined with an equal volume of LUMAVIDIN® beads (different uniquely-barcoded bead for each antigen concentration), resulting in a 5-point 2-fold serial dilution series starting from a final b-huTREM-1-His antigen concentration of 30 ng/mL. The antigen-bead mixtures were plated across 3 wells in a 96-well FACS plate, then incubated for 30 minutes at room temperature protected from light. Beads were then pelleted by centrifugation, supernatant was removed by flicking, and wells were washed twice with 200 μL/well of FACS buffer. The different beads were then resuspended, pooled, and diluted in STABILGUARD® Immunoassay Stabilizer (SurModics) to block non-specific binding. Normalized TREM-1 hybridoma supernatants were combined with an equal volume of bead mixture in a FACS plate at a final concentration of 5 μg/mL test antibody to 0.5 μL beads/well. The plates were then shaken and incubated overnight for ˜18 hours at room temperature. Beads were then pelleted by centrifugation, supernatant was removed by flicking, and wells were washed twice with 200 μL/well of FACS buffer. ALEXA FLUOR® 488 Goat anti-Human IgG Fc secondary detection antibody (Jackson ImmunoResearch) was added at 5 μg/mL to the plates, shaken, and incubated for 15 minutes at room temperature protected from light. Beads were washed with FACS buffer, pelleted by centrifugation, supernatant was removed by flicking, and washed once more with FACS buffer. The beads were then resuspended and run on the BD ACCURI™ C6 Flow Cytometer with Intellicyt […]® autosampler.
The antibody binding signal correlates with antibody affinity; the degree of antibody binding to the target antigen TREM-1 correlates with the measured fluorescent intensity and thus allows a relative comparison of affinities across the panel.

[3] = target: T1, human TREM-1 (TrigGering Receptor …); experiment: cell-based or functional assay
cyno TREM-1 on cells = target: T3, cyno TREM-1 on cells (cynomolgus monkey, UniProt A0A2K5VHG8 21-233); experiment: FACS on HEK293 co-transfected with cyno TREM-1 and DAP12; hybridoma supernatant 2.5 ug/mL; geomean fold over irrelevant control antibody
T3 construct: whole, on cells; On HEK293 cells co-transfected with DAP12, or native on cynomolgus PBMCs; also called cynomolgus TREM-1; TREM-1 receptor in cynomolgus monkey PBMCs
T3 sequence: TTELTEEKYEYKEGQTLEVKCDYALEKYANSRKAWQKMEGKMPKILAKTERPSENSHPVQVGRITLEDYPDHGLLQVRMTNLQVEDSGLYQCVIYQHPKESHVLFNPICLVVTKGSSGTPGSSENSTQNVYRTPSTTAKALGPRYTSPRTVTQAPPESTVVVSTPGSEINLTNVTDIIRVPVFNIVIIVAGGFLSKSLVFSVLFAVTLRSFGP
Procedure: as §1

Human TREM1 GM Fold [1] [fold] | Soluble TREM1 7.5 ng/mL (FACS Geomean) [2] | Ab IC50-Human PBMC (Trial 1), TNFα release after PGLYRP1/PGN [3] [pM] | Ab IC50-Human PBMC (Trial 2), TNFα release after PGLYRP1/PGN [3] [pM] | Cyno TREM1 GM Fold (cyno TREM-1 on cells) [fold] | Binder
2070 | 24800 | 10.2 | 2.7 | 2160 | B1
1380 | 25800 | 3.8 | 3.1 | 2370 | B2
1480 | 24500 | 4.3 | 2.4 | 2150 | B3
1630 | 36800 | 3.5 | 6.1 | 2240 | B4
1910 | 38000 | 6.3 | 4.4 | 2690 | B5
